Reference: ChEMBL document CHEMBL4028897 (J Med Chem, 2017)

Organism: Homo sapiens
Assay: Selectivity ratio of Ki for human dopamine D2 long receptor to Ki for human dopamine D3 receptor

Ratio Ki	SMILES
40.2	COc1ccccc1N1CCN(CCCSc2nnc(-c3ccccc3)n2C)CC1
905	COc1ccccc1N1CCC2(CCN(CCCSc3nnc(-c4ccccc4)n3C)CC2)CC1
315	COc1ccccc1N1CCC2(CCN(CCCSc3nnc(-c4ccccc4)n3C)CC2)C1
